Results published in PubChem BioAssay AID602332 (National Center for Advancing Translational Sciences (NCATS), 2012).
The list shows a part of the results, in another mix than the full data. Calls of active or inactive are those of the source. Calls come from the whole dose curve; as a rule, active = well fitted activation curve with a large enough effect; inconclusive = small, poorly fitted or top-dose-only effect; inactive = no such curve, though single readings can be large or run the other way.

Test: qHTS for Inducers of the Endoplasmic Reticulum Stress Response (ERSR) in Human Glioma: qHTS; note: % of control where 0% means no effect; nearly all actives have a fitted effect of over 35% in size
Conditions: U87-MG GRP78 promoter luciferase reporter, 16 h; hits give high values
With `COc1ccccc1OP(C)(=O)Nc1cccc(Br)c1` (stereo not drawn) the activation was inactive: -3.84%. In the case of `Cc1cc(C)cc(OP(C)(=O)Nc2ccccn2)c1` (stereo not drawn), the activation is reported as inactive: 2.33%. For `CP(=O)(Nc1cccc(Br)c1)Oc1ccccc1` (stereo not drawn), the activation was inactive: -2.63%. For `Cc1ccc(C)c(NP(C)(=O)Oc2ccccc2)c1` (stereo not drawn), the activation was inactive: 2.75%. With `CC(C)N(CCCl)C(C)C` the activation was inactive: -4.6%. In the case of `CN(Cc1cccnc1)C(=O)COc1ccc(Cl)c(Cl)c1.O=[N+]([O-])c1cc([N+](=O)[O-])c(O)c([N+](=O)[O-])c1`, the activation is reported as inactive: 1.75%. With `O=[N+]([O-])c1cc([N+](=O)[O-])c(-n2nnc3ccccc32)c([N+](=O)[O-])c1` the activation was inactive: -2.04%. In the case of `Cc1nc2ccc3ccccc3c2s1.O=[N+]([O-])c1cc([N+](=O)[O-])c(O)c([N+](=O)[O-])c1`, the activation is reported as inactive: -0.123%. For `O=[N+]([O-])c1cc([N+](=O)[O-])c(-c2cnn(-c3ccccc3)c2)c([N+](=O)[O-])c1`, the activation was inactive: -6.27%. In the case of `CC1=C2N=C(C=C3N=C(C(C)=C4[N-][C@@](C)([C@@H]5N=C1[C@](C)(CCC(=O)NC[C@@H](C)OP(=O)([O-])O[C@H]1[C@@H](O)[C@@H](n6cnc7cc(C)c(C)cc76)O[C@@H]1CO)[C@H]5CC(N)=O)[C@@](C)(CC(N)=O)[C@@H]4CCC(N)=O)[C@@](C)(CC(N)=O)[C@@H]3CCC(N)=O)C(C)(C)[C@@H]2CCC(N)=O.[C-]#N.[Co+3]`, the activation is reported as inactive: -4.74%. In the case of `O=[N+]([O-])c1cc([N+](=O)[O-])c(Nc2nnnn2CCO)c([N+](=O)[O-])c1`, the activation is reported as inactive: -2.85%. For `CCCOc1ccc(NP(C)(=O)Oc2ccc(Cl)cc2)cc1` (stereo not drawn), the activation was inactive: 8.68%. With `CP(=O)(Nc1ccc(SC(F)(F)F)cc1)Oc1ccccc1` (stereo not drawn) the activation was inactive: -2.49%. For `COc1ccccc1OP(C)(=O)Nc1c(C)cccc1C` (stereo not drawn), the activation was inactive: -4.63%. With `CN1CCCCC1COC(=O)C1(O)c2ccccc2CCc2ccccc21` (stereo not drawn) the activation was inactive: -3.53%. For `COc1ccccc1OP(C)(=O)Nc1ccccc1` (stereo not drawn), the activation was inactive: -6%. For `CP(=O)(Nc1ccccc1Br)Oc1ccccc1` (stereo not drawn), the activation was inactive: -4.28%. In the case of `CP(=S)(Nn1cnnc1)Oc1ccccc1` (stereo not drawn), the activation is reported as inactive: -2.43%. In the case of `Cc1cc(C)cc(OP(C)(=O)Nc2ccc(SC(F)(F)F)cc2)c1` (stereo not drawn), the activation is reported as inactive: -0.774%. With `CP(=O)(NC(=O)Nc1ccccc1)Oc1ccccc1` (stereo not drawn) the activation was inactive: -2.18%. For `CCc1ccc(OP(C)(=O)N2CCN(c3ccc([N+](=O)[O-])cc3)CC2)cc1` (stereo not drawn), the activation was inactive: -0.402%. For `CP(=O)(Oc1ccccc1)OC(c1ccccc1)C(F)(F)F` (stereo not drawn), the activation was inactive: -2.7%. In the case of `Cc1cccc(C)c1OP(C)(=O)Nc1ccc(SC(F)(F)F)cc1` (stereo not drawn), the activation is reported as inactive: -5.08%. With `CP(=O)(Nc1ccc(SC(F)(F)F)cc1)Oc1ccc(Cl)cc1` (stereo not drawn) the activation was inactive: -5.92%. For `CP(=O)(Nc1ccccn1)Oc1ccc(Cl)cc1` (stereo not drawn), the activation was inactive: -3.87%. With `CCOP(C)(=S)SCC(=O)NC(C)C(=O)O` (stereo not drawn) the activation was inactive: -2.78%. For `CN(C)CCS`, the activation was inactive: -3.36%. With `CCOC(=O)c1ccc(NP(C)(=O)Oc2ccc(OC)cc2)cc1` (stereo not drawn) the activation was inactive: 1.45%. With `O=[N+]([O-])c1cc([N+](=O)[O-])c(O)c([N+](=O)[O-])c1.c1ccc(Oc2ccncc2)cc1` the activation was inactive: -2.18%. With `CCN(CC)CCCOC(=O)C(O)(c1ccccc1)c1ccccc1` the activation was inactive: -4.95%. For `O=[N+]([O-])[O-].[NH4+]`, the activation was inactive: -3.99%. With `Cc1cccc(C)c1OP(C)(N)=O` (stereo not drawn) the activation was inactive: 0.213%. For `O=C(O)C(O)(c1ccccc1)c1ccccc1`, the activation was inactive: -3%. In the case of `CC(C)(C)c1ccc(OP(C)(=O)Nc2ccc(SC(F)(F)F)cc2)cc1` (stereo not drawn), the activation is reported as inactive: -7.28%. For `O=[N+]([O-])c1ccc2c(c1)C=Nc1ccccc1O2`, the activation was inactive: -2.23%. For `O=[N+]([O-])c1cc([N+](=O)[O-])c(Nc2cccnc2)c([N+](=O)[O-])c1`, the activation was inactive: -5.93%. For `O=C(O)C1(O)c2ccccc2-c2ccccc21`, the activation was inactive: 1.15%. With `COc1ccc(OP(C)(=O)Nc2cccc(F)c2)cc1` (stereo not drawn) the activation was inactive: -4.35%. With `COc1ccccc1OP(C)(=O)Nc1cc(Cl)ccc1C` (stereo not drawn) the activation was inactive: -3.48%. With `Cc1cc(C)cc(OP(C)(N)=O)c1` (stereo not drawn) the activation was inactive: -2.85%. With `CCOC(=O)c1ccc(NP(C)(=O)Oc2ccccc2)cc1` (stereo not drawn) the activation was inactive: -1.72%. With `Cc1ccc(NP(C)(=O)Oc2ccccc2)c(C)c1` (stereo not drawn) the activation was inactive: 0.719%. With `COc1ccccc1OP(C)(=O)Nc1ccc(C)cc1` (stereo not drawn) the activation was inactive: 0.736%.
